Biological target: T1, gp100 peptide on HLA-A*02:01 (human)
T1 peptide: KTWGQYWQV
Experiment: multimer staining

B1: anti-gp100 TCR (TCR, V domains shown)
Valpha: DQQVKQNSPSLSVQEGRISILNCDYTNSMFDYFLWYKKYPAEGPTFLISISSIKDKNEDGRFTVFLNKSAKHLSLHIVPSQPGDSAVYFCAANSGGGADGLTFGKGTHLIIQP
Vbeta: SAVISQKPSRDICQRGTSLTIQCQVDSQVTMMFWYRQQPGQSLTLIATANQGSEATYESGFVIDKFPISRPNLTFSTLTVSNMSPEDSSIYLCSVAGPSGEKLFFGSGTQLSVL
B1: recognises.
